ASAP1 GAP inh = blocks human ASAP1-stimulated Arf1 GTP hydrolysis. GDP FP detection. inhibition, % at 16.5 µM. 360,000 tested, 0.19% active. AID 624377; in the data active means inhibition above about 25%
MC4R antag cAMP = human MC4R antagonism in cAMP assay; 360,000 tested, 0.48% active; AID 540295; P32245; inhibition, % at 6.5 µM; MC4R-expressing cells, MTII-stimulated cAMP, LANCE TR-FRET;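 active means inhibition above its plate's cutoff, the mean of tested wells on that plate plus 3 SD, cut at about 29% in these data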
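Material: U2OS-MC4R stable cell line | Reagent: Melanotan II challenge after compound preincubation | Doses: One concentration, 6.5 µM nominal | Incubation: 30-min compound preincubation, 1-h Melanotan II challenge, 1-h detection, room temperature | Signal: TR-FRET cAMP assay | Replicates: One well per compound, no replicates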
UUG fidelity = modulators of yeast start codon fidelity, primary screen, whole organism, S. cerevisiae, single point, plate reader | AID 602363, 2012 | S. cerevisiae UUG-firefly luciferase reporter, luminescence/redox ratio | activity score, % at 18.7 µM | hit rate 0.13% among 350,000;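 active = replicate mean at a twofold rise or more, about +100% in these data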;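 also: firefly luciferase made from a UUG start codon reports start codon fidelity; reporter light over untreated wells divided by growth signal over untreated wells; some hits fall short of that in this replicate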
NRP1-CendR mod = NRP-1/CendR interaction modulation; O14786; FAM-RPARPAR peptide binding to NRP-1, fluorescence polarization; inhibition, % at 25 µM; 360,000 tested, 0.85% active; AID 602438;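 active means inhibition or corrected inhibition above about 18%, plus a signal ratio from 0.5 to 1.5, limit read from the data, passing the limit was not always enough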
MC4R barr agon = agonists of human melanocortin 4 receptor (MC4R) beta-arrestin | U2OS MC4R beta-arrestin complementation, luminescence; percent of melanotan II response, DMSO zero | P32245 | activation, % at 8.9 µM | 360,000 tested, 0.98% active;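 active means activation above a per-plate cutoff, the mean activation of sample wells on that plate plus 3 SD, cut at about 8% in these data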
ARFGAP1 inhibitor = rat ARFGAP1 inhibition; Q62848; Arfgap1-stimulated ARF1 GTP hydrolysis, GDP FP detection; inhibition, % at 16.5 µM; 360,000 tested, 0.26% active;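 active means inhibition above a per-plate limit, mean inhibition of low control wells plus 3 SD, cut at about 25% in these data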
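system = rat Arfgap1 catalytic domain, aa 1-136 | technique = FP, GDP Alexa 633 tracer displaced from anti-GDP antibody, 620/688 nm | compound = one concentration, 16.5 µM, DMSO 1.26% | medium = HEPES-based buffer, pH 7.5 | timing = compound-enzyme preincubation 20 min, reaction 120 min, detection 60 min, 25 °C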
Hits are given with their value. Compounds with a hit are over-represented: about 2.3% of the library has one in this group of screens.

Screening Cc1cc(C(=O)Nc2cccc3c2O[C@H](CN(C)C(=O)Nc2ccc(F)cc2)[C@@H](C)CN([C@@H](C)CO)C3=O)n(C)n1 returned UUG fidelity inactive.
For O=C(C[C@H]1CC[C@H]2[C@@H](COC[C@H](O)CN2Cc2cccc(F)c2)O1)NCC1CCCCC1 the results were UUG fidelity inactive.
Screening c1ccc(CCNc2ccccn2)nc1 returned ASAP1 GAP inh inactive, MC4R antag cAMP inactive, NRP1-CendR mod inactive, MC4R barr agon inactive and ARFGAP1 inhibitor inactive.
For c1ccc(CCNc2ccc3c(c2)Cc2ccccc2-3)nc1 the results were ASAP1 GAP inh inactive, MC4R antag cAMP inactive, UUG fidelity inactive, NRP1-CendR mod 29, MC4R barr agon inactive and ARFGAP1 inhibitor inactive.
Cc1ccccc1S(=O)(=O)N1C[C@@H]2[C@H](c3ccccc31)[C@@H](CO)N2C(=O)CC1CC1 was read as UUG fidelity inactive.
`COc1ccc(C2NCCc3c2[nH]c2ccccc32)cc1CN1CCc2cc(OC)c(OC)cc2C1C` (centres undefined) gave MC4R antag cAMP inactive, NRP1-CendR mod inactive and MC4R barr agon inactive.
`COc1ccc(C2NCCc3c2[nH]c2ccccc32)cc1COc1ccc(F)cc1` (centres undefined) gave ASAP1 GAP inh inactive, MC4R antag cAMP inactive, NRP1-CendR mod inactive, MC4R barr agon 24 and ARFGAP1 inhibitor inactive.
Screening CCCc1c(NC(=O)Nc2ccc(Cl)cc2Cl)cnn1-c1ccccc1 returned ASAP1 GAP inh inactive, MC4R antag cAMP inactive, UUG fidelity inactive, NRP1-CendR mod inactive, MC4R barr agon 9.2 and ARFGAP1 inhibitor inactive.
For C[C@H](CO)N1C[C@H](C)[C@@H](CN(C)Cc2ccc3c(c2)OCO3)Oc2ccc(NS(C)(=O)=O)cc2CC1=O the results were UUG fidelity inactive.
For CS(=O)(=O)N1[C@H](C#N)[C@H](c2ccccc2)[C@@H]1CO the results were UUG fidelity inactive.
O=C(Nc1nc(-c2cccs2)c(-c2ccccc2)s1)c1ccco1 was read as ASAP1 GAP inh inactive, MC4R antag cAMP inactive, NRP1-CendR mod inactive, MC4R barr agon inactive and ARFGAP1 inhibitor 34.
CC1=CC2C(C(O)CC3(C)C2CC(C)C32OCOC23COCO3)C2(C)C/C(=C\O)C(=O)C=C12 (centres undefined) was read as ASAP1 GAP inh inactive, MC4R antag cAMP inactive, NRP1-CendR mod inactive, MC4R barr agon 29 and ARFGAP1 inhibitor inactive.
`COCCNC(=O)C[C@H]1CC[C@H]2[C@H](COc3ccc(NC(C)=O)cc3C(=O)N2C)O1` gave UUG fidelity inactive.
Screening CC(=O)N1CC(C)Sc2ccc(S(=O)(=O)NC3CCCCC3C)cc21 (centres undefined) returned ASAP1 GAP inh inactive, MC4R antag cAMP inactive, UUG fidelity inactive, NRP1-CendR mod 21, MC4R barr agon inactive and ARFGAP1 inhibitor inactive.
C[C@@H]1CN([C@H](C)CO)C(=O)c2cc(C3=CCCC3)cnc2O[C@H]1CN(C)C(=O)C1CCOCC1 was read as UUG fidelity inactive.
`CC(C)(C)c1ccc(C(=O)Nc2nnc(Cc3c[nH]c4ccccc34)s2)cc1` gave ASAP1 GAP inh inactive, MC4R antag cAMP inactive, UUG fidelity inactive, NRP1-CendR mod inactive, MC4R barr agon 8.3 and ARFGAP1 inhibitor inactive.
CCCn1nc([N+](=O)[O-])c(C(C#N)c2nc3ccccc3s2)c(Cl)c1=O (centres undefined) was read as ASAP1 GAP inh inactive, MC4R antag cAMP inactive, UUG fidelity inactive, NRP1-CendR mod 34, MC4R barr agon inactive and ARFGAP1 inhibitor inactive.
Screening CC(=O)Nc1ccccc1OCC(=O)N(Cc1ccccc1)C(C)C returned ASAP1 GAP inh inactive, MC4R antag cAMP inactive, UUG fidelity inactive, NRP1-CendR mod 38, MC4R barr agon inactive and ARFGAP1 inhibitor inactive.
`C[C@@H]1CN([C@@H](C)CO)S(=O)(=O)c2ccc(-c3ccc(F)cc3)cc2O[C@H]1CN(C)Cc1cccc(F)c1` gave UUG fidelity inactive.
O=C(N1CCCCCC1)N1CCN(C(=O)N2CCCCC2)CC1 was read as ASAP1 GAP inh inactive, MC4R antag cAMP inactive, UUG fidelity inactive, NRP1-CendR mod 28, MC4R barr agon inactive and ARFGAP1 inhibitor inactive.
For C[C@@H]1CN([C@@H](C)CO)C(=O)Cc2cc(NC(=O)CCCN(C)C)ccc2O[C@H]1CN(C)Cc1ccc(Oc2ccccc2)cc1 the results were UUG fidelity inactive.
`CC(C)=CCNc1ncnc2c1c(C#N)cn2C1OC(CO)C(O)C1O` (centres undefined) gave ASAP1 GAP inh inactive, MC4R antag cAMP inactive, NRP1-CendR mod 26, MC4R barr agon inactive and ARFGAP1 inhibitor inactive.
`O=C(C[C@@H]1CC[C@H](NC(=O)Nc2cccc(F)c2)[C@@H](CO)O1)NCC1CCCCC1` gave UUG fidelity inactive.
`COc1ccc(Oc2c(C=O)c3ccccc3n2C)cc1` gave ASAP1 GAP inh inactive, MC4R antag cAMP inactive, NRP1-CendR mod 26, MC4R barr agon inactive and ARFGAP1 inhibitor inactive.
Cc1noc(C)c1S(=O)(=O)N(C)C[C@@H]1OCCCC[C@H](C)Oc2ccc(NC(=O)Nc3ccccc3)cc2C(=O)N([C@@H](C)CO)C[C@H]1C was read as UUG fidelity inactive.
For O=C(OCc1ccccc1)N1C=CC2CC1c1c(Cl)cccc12 (centres undefined) the results were ASAP1 GAP inh inactive, MC4R antag cAMP inactive, UUG fidelity inactive, NRP1-CendR mod inactive, MC4R barr agon inactive and ARFGAP1 inhibitor inactive.
Screening O=C(OCc1ccccc1)N1C[C@H](O)[C@H](O)C[C@@H]1c1c(Cl)cccc1Br returned ASAP1 GAP inh inactive, UUG fidelity inactive, NRP1-CendR mod 20 and ARFGAP1 inhibitor inactive.
CC(=O)c1sc(Nc2ccccn2)nc1C was read as ASAP1 GAP inh inactive, MC4R antag cAMP inactive, UUG fidelity inactive, NRP1-CendR mod inactive, MC4R barr agon inactive and ARFGAP1 inhibitor 26.
Screening CC(=O)c1sc(Nc2cccc3ccccc23)nc1C returned ASAP1 GAP inh inactive, MC4R antag cAMP inactive, NRP1-CendR mod inactive, MC4R barr agon inactive and ARFGAP1 inhibitor inactive.
C[C@@H]1CN([C@H](C)CO)C(=O)c2cc(C#CC3CCCC3)cnc2O[C@H]1CN(C)C(=O)C1CCCCC1 was read as UUG fidelity inactive.
`O=c1ccc2cccc([N+](=O)[O-])c2[nH]1` gave ASAP1 GAP inh inactive, NRP1-CendR mod 22 and ARFGAP1 inhibitor inactive.
`NC(c1csc(Nc2ccc(C(F)(F)F)cn2)n1)C1CCCCC1` (centres undefined) gave ASAP1 GAP inh inactive, MC4R antag cAMP inactive, UUG fidelity inactive, NRP1-CendR mod inactive, MC4R barr agon 8.9 and ARFGAP1 inhibitor inactive.
For NC(CO)c1csc(Nc2ccc(C(F)(F)F)cn2)n1 (centres undefined) the results were ASAP1 GAP inh inactive, MC4R antag cAMP inactive, UUG fidelity inactive, NRP1-CendR mod inactive, MC4R barr agon inactive and ARFGAP1 inhibitor inactive.

High-throughput results (PubChem)
